According to PubChem BioAssay AID1362 (SRMLSC, 2008):
The entries are a selection whose mix differs from that of the whole data set. Activity calls are given as the source filed them. Rule as the data show it: active = inhibition above about 58%; inactive = the rest, inconclusive results apart; tested in S. cerevisiae.

Experiment: growth inhibition of WT strain, primary screen, mitochondrial fusion inhibitor project, WT and mutant strains, chemical genetic (AID 1362)
Details: mitochondrial fusion phenotypic screen, at 10 µM, stronger effect = higher value

SMILES	inhibition
CCOC(=O)N1CCC(Nc2ccc(OC)cc2)CC1	inactive: -8.61%
O=C(OC1CN2CCC1CC2)C1c2ccccc2Oc2ccccc21 (centres undefined)	inactive: 7.1%
COc1ccc(C(=O)NCC2(N3CCCCC3)CCCCC2)c(OC)c1OC	inactive: 4.97%
COc1ccc(NC2CCN(CCc3ccccc3)CC2)c(OC)c1	inactive: -1.96%
COc1ccc(NC2CCN(C(=O)OC(C)(C)C)CC2)cc1	inactive: -9.59%
CN1CCN(CCOC(=O)C(O)(c2ccccc2)c2ccccc2)CC1	inactive: -7.14%
O=C(NCC1(N2CCOCC2)CCCCC1)c1cc(=O)[nH]c2ccccc12	inactive: -7.26%
O=C(NCC1(N2CCCCC2)CCCCC1)c1cccc([N+](=O)[O-])c1	inactive: 12.9%
N#CC1(Nc2ccccc2)CCN(CCc2ccccc2)CC1	inactive: 5.72%
COc1ccc(CN(CCCl)CCCl)cc1Cl	inactive: -8.52%
CN(C)c1cccc(C(=O)NCC2(N3CCCCC3)CCCCC2)c1	inactive: -9.85%
CC(C)c1ccc(NC2CCN(C(=O)OC(C)(C)C)CC2)cc1	inactive: 21.5%
O=C(OC1CN2CCC1CC2)C1c2ccccc2C=Cc2ccccc21 (centres undefined)	inactive: -4.87%
N/C(=N\O)c1c(N)no[n+]1[O-]	inactive: 13.4%
COc1ccc(C(=O)NCC2(N3CCOCC3)CCCCC2)cc1OC	inactive: -17.2%
c1ccc(CN2CCC(Nc3ccccc3)CC2)cc1	inactive: 14.3%
N#Cc1ccc(C(=O)NCC2(N3CCCCC3)CCCCC2)cc1	inactive: -17.8%
CN(C)c1ccc(C(=O)NCC2(N3CCCCC3)CCCCC2)cc1	inactive: -6.53%
CCN1CCC(Nc2cccc(F)c2)CC1	inactive: 6.39%
Fc1ccccc1NC1CCN(Cc2ccccc2)CC1	inactive: 1.76%
CCC(CO)(C(=O)OC1CN2CCC1CC2)c1ccccc1 (centres undefined)	inactive: 17.7%
COc1cc(OC)cc(C(=O)NCC2(N3CCOCC3)CCCCC2)c1	inactive: -11.8%
CC(C)(C)OC(=O)N1CCC(Nc2ccccc2)CC1	inactive: -9.78%
CCOc1ncccc1C(=O)NCC1(N2CCOCC2)CCCCC1	inactive: -11.1%
